The test system of the experiment is HCT116 tumors. Nature of the experiment: KULA2 in mice harboring HCT116 tumors (MPC null). The experiment is classed as in vivo. Conditions: comparator results named beside KULA2 in HCT116; dose and source not given. On the procedure:
HCT116 represents the MPC null group, having minimal to no expression of MPC1 or MPC2. CT26 is the MPC+ group. MPC levels were verified via western blotting or otherwise known (see, e.g., Schell, et al., Molecular Cell, 56:400-413 (2014)).
In both models HCT116 and CT26 the mice (between 8-10 per arm) were dosed with KULA2 via i.p. injection and vehicle, HCT116 tumors at a dose of 20 mg/kg, and CT26 tumors at a dose of 18 mg/kg. Dosing schedule in both cases was 5 days on, 2 days off for the duration of the study.
Experiments were designed to determine if MPC expression correlates with the efficacy of PDK inhibitor. A PDK inhibitor, KULA2, was administered to mice harboring HCT116 tumors (at a dose of 20 mg/kg) or CT26 tumors (at a dose of 18 mg/kg). […] However in the CT26 MPC positive model, KULA2 inhibits tumors by about 55%. […] The results also indicate that MPC expression can used as a biomarker to select subjects for treatment with KULA2, other PDK inhibitors, and other modulators to the TCA and oxidative phosphorylation downstream of pyruvate import into the mitochondria.

Turning to “Erbitux: comparator named for tumor inhibition”, the “tumor inhibition (comparators)” value came to 7%.

The values above are taken from patent US20170349949A1, “METHODS OF SELECTING SUBJECTS FOR TREATMENT WITH METABOLIC MODULATORS” (Partikula LLC, priority 2016, published 2017).
